Experimental data from patent US9108950B2, “1-pyrazolyl-3-(4-((2-anilinopyrimidin-4-yl)oxy)napththalen-1-yl) ureas as p38 MAP kinase inhibitors” (Respivert Ltd., priority 2011, dated 2015).

Protein sequences, listed by entry. Tags and fused reporters are not part of them. Lines headed by an entry give the natural chain unless they say otherwise; changes in a name come on top.
UniProt P08631: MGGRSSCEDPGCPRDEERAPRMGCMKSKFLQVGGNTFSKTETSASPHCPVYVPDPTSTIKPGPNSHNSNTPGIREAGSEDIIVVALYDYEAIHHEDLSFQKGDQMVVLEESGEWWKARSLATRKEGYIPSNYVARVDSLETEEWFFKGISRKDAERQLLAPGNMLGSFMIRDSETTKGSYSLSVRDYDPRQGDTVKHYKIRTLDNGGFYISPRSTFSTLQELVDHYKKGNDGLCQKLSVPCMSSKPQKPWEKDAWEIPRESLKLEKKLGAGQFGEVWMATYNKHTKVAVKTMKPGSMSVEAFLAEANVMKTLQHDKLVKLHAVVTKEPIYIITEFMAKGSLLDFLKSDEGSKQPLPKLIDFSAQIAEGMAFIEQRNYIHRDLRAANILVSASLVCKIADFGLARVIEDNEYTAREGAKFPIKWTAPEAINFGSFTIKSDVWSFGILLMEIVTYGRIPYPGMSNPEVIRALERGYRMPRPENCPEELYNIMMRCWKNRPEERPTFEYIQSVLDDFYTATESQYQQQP

Columns and labels:
HCK = HCK (Homo sapiens (Human), UniProt P08631); test: Kinase competition binding (DiscoverX)
Protocol: (§1) These assays were conducted by DiscoverX (formerly Ambit; San Diego, Calif.).

Syk = Syk (Homo sapiens (Human), UniProt P43405); test: Kinase competition binding (DiscoverX)
Protocol: as §1

Structure (SMILES): COCC(=O)Nc1cc(Oc2ccc(NC(=O)Nc3cc(C(C)(C)C)nn3-c3ccc(C)cc3)c3ccccc23)ccn1 [Reference Compound, N-(4-(4-(3-(3-tert-butyl-1-p-tolyl-1H-pyrazol-5-yl)ureido)naphthalen-1-yloxy)pyridin-2-yl)-2-methoxyacetamide]
- Kd (HCK): 5 nM
- Kd (Syk): 9 nM
